Laboratory results: publication PMC4160570, “Effects of proarrhythmic drugs on relaxation time and beating pattern in rat engineered heart tissue” (Basic Research in Cardiology, 2014)

System: rat engineered heart tissue (EHT)
Test: Video-optical analysis of contractile parameters of spontaneously beating rat EHTs (50 nM epinephrine)
Settings: 1-, 10-, 100-fold FTPC, n = 4–8

significant T2 prolongation (p<0.05 and at least 15 % vs baseline): Significant T2 prolongations
Structure (SMILES): CCCNCC(O)COc1ccccc1C(=O)CCc1ccccc1 (stereo not shown) [Propafenone]
